Test results as given in US7208314B2, “Compositions and methods for drug delivery using pH sensitive molecules” (priority 2002, dated 2007).

Conditions: pH 5
Method: The absorbance of the solution at 225 nm, which is the wavelength at which enol ethers absorb (Kresge, A. J.; Sagatys, D. S.; Chen, H. L. J. Am. Chem. Soc. 1977, 99, 7228) was measured over time.
The absorbance of the solution at 225 nm was measured as a function of time.

glycolic acid ethoxylate(4 units) 4-tert-buty-1,4-cyclohexadiene ether
half-life of enol ether hydrolysis: 40 min
